Results reported in paper PMC10223737, “Validation of Freshly Isolated Rat Renal Cells as a Tool for Preclinical Assessment of Radiolabeled Receptor-Specific Peptide Uptake in the Kidney” (Pharmaceuticals, 2023).

Legend:
LLC-PK1 cells = assay: Cellular uptake in LLC-PK1 cells; type: in vitro ADME, porcine; conditions: mean ± S.D., n = 4
Protocol: The cellular accumulation of two somatostatin receptor-specific analogs ([^111In]In -DOTA-TATE and [^111In]In -DOTA-NOC) was compared in two renal cellular models, OK cells and LLC-PK1 cells.
Table 1 documents this finding for LLC-PK1 cells that grew for 6 h and for 3 days.

isolated rat renal cells = assay: Radiopeptide uptake in freshly isolated rat renal cells; conditions: mean ± S.D., n = 4

## [^99mTc]Tc-albumin: radiolabeled albumin, marker of proximal tubule endocytic activity, substrate of the megalin endocytic receptor [reference compound]
LLC-PK1 cells; LLC-PK1 cells grown for 6 h
  Cellular uptake, young LLC-PK1 cells: 0.036 ± 0.006 %D/10^6 cells/30 min
LLC-PK1 cells; LLC-PK1 cells grown for 3 days
  Cellular uptake, older LLC-PK1 cells: 0.083 ± 0.015 ^★ %D/10^6 cells/30 min
Isolated rat renal cells
  Cellular uptake, rat renal cells: 2.188 ± 0.411 %D/10^6 cells/30 min
